# Values quoted from earlier work in US6689382B2, “Soft shell gelatin capsules containing non-steroidal anti-inflammatories” (priority 2002, dated 2004).
# Tested on: COX-2 and COX-1
smiles,measurement,value
"Cc1ccc(-c2cc(C(F)(F)F)nn2-c2ccc(S(N)(=O)=O)cc2)cc1 [celecoxib, Celecoxib]",selectivity for COX-2 relative to COX-1,375 times
